This is an account of results in patent US7371773B2, “Breast cancer resistance protein (BCRP) inhibitor” (Kabushiki Kaisha Yakult Honsha, priority 2003, dated 2008).

The test system of the experiment is A549/SN-38-4 cell line. Put plainly: Overcoming anticancer drug resistance of A549/SN-38-4 cell line. To be noted: SN-38 resistance, concentration for 50% reduction of relative resistance value, 48 hours. It is filed as cell-based, human. The protocol:
The effect of a diphenylacrylonitrile derivative on BCRP-mediated anticancer drug resistance was studied by use of the human lung cancer A549/SN-38-4 cell line, which had acquired anticancer drug resistance through BCRP expression. The human lung cancer A549 cell line or the A549/SN-38-4 cell line was suspended in 10% FBS/Ham's F-12, and the resultant suspension was inoculated into a 96-well microplate, followed by culturing at 5% CO2 and 37° C. overnight (2×10^3 cells/50 μL/well). Thereafter, a 10% FBS/Ham's F-12 solution (25 μL) containing a diphenylacrylonitrile derivative and SN-38 or mitoxantrone was added to each of the wells, followed by culturing at 5% CO2 and 37° C. for 48 hours. After completion of culturing, the number of viable cells was counted by use of TetraColor ONE according to the attached instruction manual. […] The greater the relative resistance value, the higher the level of acquired resistance.

With “mono-{4-[(Z)-2-cyano-2-(3,4-dimethoxy-phenyl)-vinyl]-phenyl} sodium phosphate [Compound 60]”, the “Resistance overcoming effect EC50” value worked out at 0.064 µg/mL.

On to “mono-{4-[(Z)-2-cyano-2-(3,4-dimethoxy-phenyl)-vinyl]-2-methoxy-phenyl} sodium phosphate [Compound 69]”, for which the “Resistance overcoming effect EC50” value worked out at 0.13 µg/mL.
